# Biological target: human GPR119 (hGPR119) (Homo sapiens, UniProt Q8TDV5)
# Chains of the proteins cited; added tags and fusions are not shown.
# UniProt Q8TDV5, whole entry: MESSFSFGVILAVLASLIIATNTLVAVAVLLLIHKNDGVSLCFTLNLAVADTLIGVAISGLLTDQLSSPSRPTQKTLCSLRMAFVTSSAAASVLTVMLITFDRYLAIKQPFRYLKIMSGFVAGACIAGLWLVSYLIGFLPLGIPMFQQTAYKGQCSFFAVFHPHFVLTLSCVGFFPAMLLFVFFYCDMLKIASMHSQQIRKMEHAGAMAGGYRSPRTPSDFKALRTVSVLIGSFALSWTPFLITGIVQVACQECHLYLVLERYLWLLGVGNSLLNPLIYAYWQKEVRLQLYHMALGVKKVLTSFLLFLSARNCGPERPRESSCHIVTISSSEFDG
# Assay: cAMP accumulation assay (cAMP Gs dynamic HTRF kit)
# Conditions: CHO-K1 cells stably expressing hGPR119, 4-parameter fit
# Description: CHO-K1 cells stably expressing human GPR119 (hGPR119) were prepared by transfection of a GPR119-carrying plasmid using Lipofectamine 2000 (following manufacturer instructions). A stable cell line was established using the limiting dilution method with geneticine selection. Assay-ready frozen (ARF) cells were prepared and used throughout the study.
# The assay was performed in a 384-well plate format using the cAMP Gs dynamic assay kit from Cisbio. ARF cells expressing hGPR119 were thawed, washed and then resuspended in cAMP stimulation buffer at a cell density of 1.1×10^6 cells/mL. Cells were plated at a density of ˜10,000 cells/well (9 μL/well). Dose response curves for the tested compounds were prepared in a cAMP stimulation buffer, containing 0.1% Tween 80 at 4 fold the final concentration. The compounds were then transferred to the cell plates using BRAVO (3 μL/well) and the plates were incubated for 60 minutes at 37° C./5% CO2. Detection buffer (10 μL, prepared as described in the cAMP Gs dynamic kit) were added to each well, and the plates were incubated at ambient temperature for 1 hr.
# RT-FRET was measured using a ClarioSTAR plate reader, calculating the ratio between emissions at 665 nm and 620 nm (HTRF ratio). […] EC50 and Max activity values were determined using a standard 4-parameter fit.
compound,measurement,setting,value
COCc1cnc(N2CCC([C@H]3C[C@H]3CCOc3ccc(CC(=O)N4CC[C@@H](CNC(CO)(CO)CO)C4)c(F)c3)CC2)nc1,Max Activity,% activity normalized to Max/Min controls,+++ (+++ ≥ 130%)
same,EC50,cAMP accumulation,< 100 nM
